This is an account of results in patent publication US20250115678A1 (AstraZeneca / MedImmune, published 2025).

Common to all, as to experiment: SPR single-cycle kinetics (Biacore 8K+), TCE captured on Protein G chip, LRRC15 ECD as analyte, 1:1 fit, average of 3 or 4 replicates
The target in experiment [1] is T1, human LRRC15 recombinant extracellular domain protein (human, UniProt Q8TF66 22-538).
T1 construct: extracellular domain; also called LRRC15 human
T1 sequence (looked up): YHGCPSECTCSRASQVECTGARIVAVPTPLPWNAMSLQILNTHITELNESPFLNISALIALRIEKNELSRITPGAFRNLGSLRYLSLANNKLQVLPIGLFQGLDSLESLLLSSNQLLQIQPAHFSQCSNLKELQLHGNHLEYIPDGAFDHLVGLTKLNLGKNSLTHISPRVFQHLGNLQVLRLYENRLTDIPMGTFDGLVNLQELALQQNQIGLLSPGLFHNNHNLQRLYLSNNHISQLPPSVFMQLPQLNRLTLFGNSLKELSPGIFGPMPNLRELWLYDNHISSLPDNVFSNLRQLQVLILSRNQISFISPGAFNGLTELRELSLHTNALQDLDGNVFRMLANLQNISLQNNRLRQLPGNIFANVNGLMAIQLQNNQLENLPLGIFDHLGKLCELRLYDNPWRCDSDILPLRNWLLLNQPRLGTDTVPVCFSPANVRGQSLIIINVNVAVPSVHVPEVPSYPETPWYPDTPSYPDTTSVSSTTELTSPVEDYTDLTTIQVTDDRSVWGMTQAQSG
The procedure: (§1) The affinities of the T-cell engagers to human, mouse and cyno LRRC15 recombinant proteins were measured by Surface Plasmon Resonance using a Single-Cycle Kinetics (SCK) method on a Biacore 8K+ system (CYTIVA).
(§2) The T-cell engagers were captured on a PROTEIN G chip and exposed to a series of increasing concentrations of human, mouse or cyno LRRC15 recombinant extracellular domain proteins (Acro Biosystems PROTEIN G). The fully corrected binding data were globally fitted to a 1:1 binding model to determine the KD using the Biacore™ Insight Evaluation Software (CYTIVA). Coloured sensorgram trace represents the raw data and black line the global 1:1 fit to that data. Values for kinetics parameters is shown in Table 8 are averages for 3 or 4 replicate sets of measurements.

The target in experiment [2] is T2, cyno LRRC15 recombinant extracellular domain protein (cyno, UniProt G7NYR2 22-538).
T2 construct: extracellular domain; also called LRRC15 cyno
The procedure:
as §1, §2

Experiment [3] deals with T3, mouse LRRC15 recombinant extracellular domain protein (mouse, UniProt Q80X72 22-536).
T3 construct: extracellular domain; also called LRRC15 mouse
The procedure:
as §1, §2

B1: TPP-46960 (other)
light: not shown
heavy 1: EVQLVQSGAEVKKPGASVKVSCKASGYKFSSYWIEWVKQAPGQGLEWIGEILPGSDTTNYAQKFQDRVTFTSDTSISTAYMELSRLRSDDTAVYYCARDRGNYRAWFGYWGQGTLVTVSSASTKGPSVFPLAPSSKSTSGGTAALGCLVKDYFPEPVTVSWNSGALTSGVHTFPAVLQSSGLYSLSSVVTVPSSSLGTQTYICNVNHKPSNTKVDKRVEPKSCDKTGGSEVQLVESGGGLVQPGGSLRLSCVASGDVHKINFLGWYRQAPGKEREKVAHISIGDQTDYADSAKGRFTISRDESKNMVYLQMNSLKPEDTAVYFCRAFSRIYPYDYWGQGTLVTVSSGGGGSTHTCPPCPAPPVAGPSVFLFPPKPKDTLMISRTPEVTCVVVDVKHEDPEVKFNWYVDGVEVHNAKTKPREEQYNSTYRVVSVLTVLHQDWLNGKEYKCKVSNKALPAPIEKTISKAKGQPREPQVCTLPPSREEMTKNQVSLSCAVKGFYPSDIAVEWESNGQPENNYKTTPPVLDSDGSFFLVSKLTVDKSRWQQGNVFSCSVMHEALHNRFTQKSLSLSPGK
heavy 2: EVQLVQSGAEVKKPGASVKVSCKASGYKFSSYWIEWVKQAPGQGLEWIGEILPGSDTTNYAQKFQDRVTFTSDTSISTAYMELSRLRSDDTAVYYCARDRGNYRAWFGYWGQGTLVTVSSASTKGPSVFPLAPSSKSTSGGTAALGCLVKDYFPEPVTVSWNSGALTSGVHTFPAVLQSSGLYSLSSVVTVPSSSLGTQTYICNVNHKPSNTKVDKRVEPKSCDKTGGSEVQLLESGGGLVQPGGSLRLSCAASGFTFTDYAIGWFRQAPGKEREGVSCIRVSDGSTYYADSVKGRFTISRDSSKNTLYLQMNSLRAEDTAVYYCAAGSLYTCVQSIVWPARPYYDMDYWGQGTLVTVSSGGGGSTHTCPPCPAPPVAGPSVFLFPPKPKDTLMISRTPEVTCVVVDVKHEDPEVKFNWYVDGVEVHNAKTKPREEQYNSTYRVVSVLTVLHQDWLNGKEYKCKVSNKALPAPIEKTISKAKGQPREPQVYTLPPCREEMTKNQVSLWCLVKGFYPSDIAVEWESNGQPENNYKTTPPVLDSDGSFFLYSKLTVDKSRWQQGNVFSCSVMHEALHNHYTQKSLSLSPGK
notes: T-cell engager in the CD8/TCR format: 2x LRRC15 Fab, 1x TCR VHH, 1x CD8 VHH; Residue 55 of L-CDR2 is N
A word on the koff: it is the rate constant with which the complex falls apart. Usually kon stands for the rate constant with which the complex forms. Usually Kd stands for a measure of binding affinity in units of concentration. As to B1, in experiment [1], the koff was determined as 0.000291 s⁻¹ and the kon amounted to 297000 M⁻¹ s⁻¹. In experiment [2], the koff was found to be 0.000379 s⁻¹ and the kon was determined as 170000 M⁻¹ s⁻¹. In experiment [3], the Kd was determined as 0.281 nM, the dissociation rate constant (koff) was found to be 5.64e-05 s⁻¹ and the kon came to 200000 M⁻¹ s⁻¹.
